In this assay the target is T1, ACE derived from bovine lung (Bos taurus, UniProt P12820).
T1 construct: ACE derived from bovine lung; host or cells: bovine lung tissue
T1 sequence (P12820 29-1306): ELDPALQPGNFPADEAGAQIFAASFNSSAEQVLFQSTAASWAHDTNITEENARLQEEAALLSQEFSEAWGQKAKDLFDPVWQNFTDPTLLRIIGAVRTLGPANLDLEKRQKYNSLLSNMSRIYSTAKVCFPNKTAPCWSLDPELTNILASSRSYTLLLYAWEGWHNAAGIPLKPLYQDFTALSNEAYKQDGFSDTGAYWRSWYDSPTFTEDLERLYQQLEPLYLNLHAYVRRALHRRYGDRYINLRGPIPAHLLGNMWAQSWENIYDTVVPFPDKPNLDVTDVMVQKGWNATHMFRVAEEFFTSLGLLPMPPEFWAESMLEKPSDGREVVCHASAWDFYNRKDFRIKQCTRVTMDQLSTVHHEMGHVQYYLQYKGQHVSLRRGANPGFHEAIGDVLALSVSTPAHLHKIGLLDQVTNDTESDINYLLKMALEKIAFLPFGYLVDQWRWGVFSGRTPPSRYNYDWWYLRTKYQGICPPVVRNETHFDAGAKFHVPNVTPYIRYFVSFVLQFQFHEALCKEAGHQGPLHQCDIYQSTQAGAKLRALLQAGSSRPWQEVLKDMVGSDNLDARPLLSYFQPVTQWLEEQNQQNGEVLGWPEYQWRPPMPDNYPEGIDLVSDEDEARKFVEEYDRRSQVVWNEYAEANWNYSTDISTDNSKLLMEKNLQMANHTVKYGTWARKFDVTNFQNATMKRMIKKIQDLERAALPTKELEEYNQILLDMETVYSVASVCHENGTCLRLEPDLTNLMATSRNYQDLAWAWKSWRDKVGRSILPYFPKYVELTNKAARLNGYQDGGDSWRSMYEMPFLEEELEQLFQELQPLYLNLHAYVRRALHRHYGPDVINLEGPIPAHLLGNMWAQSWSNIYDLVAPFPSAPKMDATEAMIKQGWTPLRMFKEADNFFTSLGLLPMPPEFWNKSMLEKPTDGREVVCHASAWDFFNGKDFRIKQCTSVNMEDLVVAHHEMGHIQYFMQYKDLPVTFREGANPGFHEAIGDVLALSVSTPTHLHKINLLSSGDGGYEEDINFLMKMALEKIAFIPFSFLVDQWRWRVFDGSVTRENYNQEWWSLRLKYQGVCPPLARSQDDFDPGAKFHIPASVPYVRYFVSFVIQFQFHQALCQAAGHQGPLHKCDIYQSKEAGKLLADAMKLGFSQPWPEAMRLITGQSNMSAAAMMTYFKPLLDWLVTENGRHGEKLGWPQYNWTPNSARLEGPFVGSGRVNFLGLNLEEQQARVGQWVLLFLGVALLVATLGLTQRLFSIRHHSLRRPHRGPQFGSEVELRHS
Put plainly: Evaluation of ACE inhibitory activity (hippuryl-histidyl-leucine substrate, absorbance at 228 nm). Conditions: peptide concentration at which ACE inhibitory effect was 50%; 37° C., 30 minutes, pH 8.3 borate buffer. The format is biochemical. As to the method:
Solutions of each of these peptides at various concentrations were prepared, and measured for the ACE inhibitory activity in accordance with the method discussed below. The peptide concentration (μM) at which the ACE inhibitory effect was 50% was taken as IC50 value.
<Evaluation of ACE Inhibitory Activity>
ACE derived from bovine lung (manufactured by WAKO PURE CHEMICAL […], LTD.) was dissolved in a 0.1M borate buffer at pH 8.3 in an amount of 0.1 U, to obtain an ACE solution. […] Subsequently, the reaction was terminated by adding 250 μl of 1N hydrochloric acid (manufactured by WAKO PURE CHEMICAL […], LTD.). […] The dried product was dissolved in 1 ml of distilled water, and the absorbance at 228 nm of hippuric acid extracted with ethyl acetate was measured. As controls, absorbance was measured of a solution without the diluted solution and a solution without the diluted solution and the ACE solution. From the obtained absorbance, ACE inhibitory activity was calculated in accordance with the following formula. ACE inhibitory activity (%)=[(A−B)/A]×100 • A: (Absorbance of solution without diluted solution but with ACE solution)—(Absorbance of solution without diluted solution and ACE solution)
B: (Absorbance of solution with diluted solution and ACE solution)—(Absorbance of solution with diluted solution but without ACE solution)

The structures appear in SMILES notation. pIC50: −log10 of the molar value.

In general, pIC50 refers to the IC50 on a negative log10 scale, so that one unit is a factor of ten. Low values mean a high IC50, high ones a low IC50. The compound `N[C@@H](CO)C(=O)N1CCC[C@H]1C(=O)N1CCC[C@H]1C(=O)O` [Ser-Pro-Pro] gave a pIC50 of 4.35.

These data come from US20070122451A1, “Biogically non-degradable peptides, angiostensin converting enzyme inhibitor, drug and functional food” (Calpis Co., Ltd., priority 2003, published 2007).
